Here are results for three molecules from patent publication US10639373B2, “Pyrrolobenzodiazepine antibody drug conjugates and methods of use” (priority 2015, dated 2020).

Series [1] can be described thus: Safety/tolerance in CD-1 mice, percent body weight change. It is filed as in vivo. The note with it: dosing at days 0, 7, 14; body weight change over 45 days.
In series [2] the test system is HER2 Fo5 (MMTV-HER2) mammary tumor. The series can be described thus: Tumor growth inhibition, HER2 Fo5 model (FIGS. 6, 8). Type of series: in vivo, CRL nu/nu mice. As for the experimental part: For example, the in vivo efficacy of an anti-HER2 ADC of the invention can be measured by a high expressing HER2 transgenic explant mouse model (Phillips et al (2008) Cancer Res. 68:9280-90). […] Subjects were treated once with ADC at certain dose levels (mg/kg) and placebo buffer control (Vehicle) and monitored over two weeks or more to measure the time to tumor doubling, log cell kill, and tumor shrinkage.
The Fo5 mouse mammary tumor model was employed to evaluate the in vivo efficacy of antibody-drug conjugates of the invention after single dose intravenous injections, and as described previously (Phillips G D L, Li G M, Dugger D L, et al. Targeting HER2-Positive Breast Cancer with Trastuzumab-DM1, an Antibody-Cytotoxic Drug Conjugate. (2008) Cancer Res. 68:9280-90), incorporated by reference herein. Anti-Her2 ADC were tested with the Fo5 model, a transgenic mouse model in which the human HER2 gene is over-expressed in mammary epithelium under transcriptional regulation of the murine mammary tumor virus promoter (MMTV-HER2) as shown in FIGS. 3 and 5. The HER2 over-expression causes spontaneous development of a mammary tumor. The mammary tumor of one of these founder animals (founder #5 [Fo5]) has been propagated in subsequent generations of FVB mice by serial transplantation of tumor fragments (˜2×2 mm in size). […]

The test system of series [3] is HER2 KPL4 tumor. The series can be described thus: Tumor growth inhibition, HER2 KPL4 tumor model (FIG. 7). The note with it: FIG. 7, dosed IV once. Type of series: in vivo, scid beige mice. As for the experimental part: (§1) Tumors were established and allowed to grow to 150-200 mm^3 in volume (as measured using calipers) before a single treatment on day 0. Tumor volume was measured using calipers according to the formula: V (mm^3)=0.5A×B^2, where A and B are the long and short diameters, respectively. […] Data collected from each experimental group (10 mice per group) were expressed as mean±SE.
Inoculate n=150 mice with HER2 KPL-4 cells at 3 million cells/mouse suspended in HBSS/matrigel, in the thoracic mammary fat pad at a volume of 0.2 ml. When tumors have reached a mean tumor volume of 100-250 mm3, they will be grouped out into 10 groups of 8-10 mice each. A single treatment will be administered intravenously via the tail vein on Day 0. Volume not to exceed 0.3 ml, needle size 28 or 29 gauge.

For series [4], the system named is Bjab-luc xenograft. Briefly: Tumor growth inhibition, Bjab-luc xenograft model (FIG. 3). It is filed as in vivo, CB-17 Fox Chase SCID mice. The note with it: 0.4 mg/kg, IV once. Here is the method:
(§2) The in vivo efficacy of antibody-drug conjugates (ADC) was measured by tumor growth inhibition in mice (Example 7). […] Efficacy of the ADC was correlated with target antigen expression of the tumor cells.
(§3) The efficacy of antibody-drug conjugates were measured in vivo by implanting allografts or xenografts of cancer cells in rodents and treating the tumors with ADC. Variable results are to be expected depending on the cell line, the specificity of antibody binding of the ADC to receptors present on the cancer cells, dosing regimen, and other factors. The in vivo efficacy of the ADC was measured using a transgenic explant mouse model expressing moderate to high levels of a tumor-associated antigen, such as Her2, CD22, and Ly6E. Subjects were treated once with ADC and monitored over 3-6 weeks to measure the time to tumor doubling, log cell kill, and tumor shrinkage. Follow up dose-response and multi-dose experiments were conducted.
as §1

For series [5], the system named is WSU-DLCL2 cells. Briefly: In vitro potency, cell viability (Table 5, FIG. 1B). Type of series: cell-based, human. As for the experimental part: (§4) The in vitro potency of antibody-drug conjugates (ADC) was measured by a cell proliferation assay (Example 6). […] Potency of the ADC was correlated with target antigen expression of the cells. The tested conjugates are capable of binding to the specific antigen expressed on the surface of cells and causing the death of those cells in vitro.
(§5) The CellTiter-Glo® Luminescent Cell Viability Assay is a commercially available (Promega Corp., Madison, Wis.), homogeneous assay method based on the recombinant expression of Coleoptera luciferase (U.S. Pat. Nos. 5,583,024; 5,674,713; 5,700,670). This cell proliferation assay determines the number of viable cells in culture based on quantitation of the ATP present, an indicator of metabolically active cells (Crouch et al (1993) J. Immunol. Meth. 160:81-88; U.S. Pat. No. 6,602,677). […]
(§6) The homogeneous “add-mix-measure” format results in cell lysis and generation of a luminescent signal proportional to the amount of ATP present. […] Viable cells are reflected in relative luminescence units (RLU). […]
(§7) Efficacy of ADC was measured by a cell proliferation assay employing the following protocol ([…] GLO™ Luminescent Cell Viability Assay, Promega Corp. Technical Bulletin TB288; Mendoza et al (2002) Cancer Res. 62:5485-5488). […] The plate was incubated at room temperature for 10 minutes to stabilize the luminescence signal. • 8. […]

Series [6] relates to BJAB cells. The series can be described thus: In vitro potency, cell viability (Table 5, FIG. 1A). It is filed as cell-based. As for the experimental part:
as §4, §5, §6, §7

The test system of series [7] is Jurkat cells. Briefly: In vitro potency, cell viability (Table 5, FIG. 1C). It is filed as cell-based. As for the experimental part:
as §4, §5, §6, §7

Series [8] has as its system CD22-expressing WSU-DLCL2 xenograft. The series can be described thus: Tumor growth inhibition, WSU-DLCL2 xenograft model (FIGS. 4, 9). It is filed as in vivo, CB-17 Fox Chase SCID mice. The note with it: FIG. 4, 2 mg/kg, off-target Her2 controls. As for the experimental part: as §2, §3, §1
A short description of series [9]: Exploratory dose-escalation toxicology study in cynomolgus monkeys. It is filed as in vivo, cynomolgus monkey. The note with it: for maximum tolerated dose (MTD): IV. Here is the method: An exploratory dose-escalation toxicology study was conducted in cynomolgus monkeys. Animals received two or four q3w slow IV bolus doses of anti-HER2 hu7C2 LC:K149C-LD-51 starting at a dose level of 1 mg/kg. Dose escalations were staggered by 2-3 weeks.
Toxicity was assessed by clinical and ophthalmic exams and clinical pathology (hematology, serum chemistry, coagulation and urinalysis; approximately weekly throughout the study). Gross and microscopic histopathology was conducted on tissues collected at necropsy three weeks after the last dose.

Series [10] concerns MMTV-HER2 Founder #5 (Fo5) murine mammary tumor allograft. Briefly: Example 14 in vivo mouse allograft efficacy (FIG. 15). Set-up: species or system nu/nu mice. The note with it: single intravenous injection. An excerpt:
The efficacy of the anti-Her2 antibody-drug conjugates (ADCs) was investigated in a mouse allograft model of MMTV-HER2 Founder #5 (murine mammary tumor). The MMTV-HER2 Founder #5 (Fo5) model (developed at Genentech) is a transgenic mouse model in which the human HER2 gene, under transcriptional regulation of the murine mammary tumor virus promoter (MMTV-HER2), is overexpressed in mammary epithelium. The overexpression causes spontaneous development of mammary tumors that overexpress the human HER2 receptor. The mammary tumor from one of the founder animals (founder #5, Fo5) has been propagated in FVB mice (Charles River Laboratories) by serial transplantation of tumor fragments.
For efficacy studies, the Fo5 transgenic mammary tumor was surgically transplanted into the thoracic mammary fat pad of female nu/nu mice (Charles River Laboratories; Hollister, Calif.) as tumor fragments of approximately 15-30 mm^3 in size. When the allograft tumors reached an average tumor volume of 100-300 mm3 (referred to as Day 0), animals were randomized into groups of 7 mice each and received a single intravenous injection of the ADCs. Tumors and body weights of mice were measured 1-2 times a week throughout the study. […] Tumor volume was measured in two dimensions (length and width) using calipers and the tumor volume was calculated using the formula: Tumor size (mm^3)=0.5×(length×width×width).

[11] abbreviates: four q3w doses of 16 mg/kg, histology.

B1: ADC-201: Comparator ADC: Thio anti-Her2 hu7C2 LC K149C-(CLD-1); DAR 1.84 (conjugate)
heavy: EVQLVQSGAEVKKPGASVKVSCKASGYSFTGYWMNWVRQAPGQGLEWIGMIHPLDAEIRANQKFRDRVTITVDTSTSTAYLELSSLRSEDTAVYYCARGTYDGGFEYWGQGTLVTVSSASTKGPSVFPLAPSSKSTSGGTAALGCLVKDYFPEPVTVSWNSGALTSGVHTFPAVLQSSGLYSLSSVVTVPSSSLGTQTYICNVNHKPSNTKVDKKV[no letters for human IgG1 Fc]
light: DIVMTQSPDSLAVSLGERATINCRASQSVSGSRFTYMHWYQQKPGQPPKLLIKYASILESGVPDRFSGSGSGTDFTLTISSLQAEDVAVYYCQHSWEIPPWTFGQGTKVEIKRTVAAPSVFIFPPSDEQLKSGTASVVCLLNNFYPREAKVQWCVDNALQSGNSQESVTEQDSKDSTYSLSSTLTLSKADYEKHKVYACEVTHQGLSSPVTKSFNRGEC
Broadly, the TGI is the reduction of tumour growth relative to the control group. In the case of B1, the “maximum tolerated dose (MTD)” value in [1] is 0.075 mg/kg. Besides, the tumor inhibition entry in [2] (FIG. 6, dosed IV once) was “tumor inhibition and dose-dependent effects”; in [3], “tumor inhibition and dose-dependent effects”. For the same molecule, the TGI in [4] is 36%.

B2: ADC-108: Thio Hu-Anti-Her2 hu7C2 LC K149C-(LD-52); DAR 1.99 (conjugate)
heavy: B1 heavy
light: B1 light
By IC50 is commonly meant the concentration needed to halve the response being measured. The low end stands for inhibition by little substance, the high end for a need for much substance. On to B2, for which, in series [5], the half-maximal inhibitory concentration (IC50) came out at 11.3 nM and the “WSU-DLCL2 IC50” value was 1.68931 µg/mL. In addition, the “maximum tolerated dose (MTD)” value in series [1] is 0.2 mg/kg. Moreover, in series [6], the “BJAB IC50” value is 1.2687 µg/mL and the concentration for half-maximal inhibition (IC50) amounted to 8.46 nM. Moreover, the tumor inhibition entry in [2] (FIG. 8, dosed IV once) was “tumor inhibition and dose-dependent effects”. In series [7], the IC50 amounted to 8.96 nM and the “Jurkat IC50” value was found to be 1.3426 µg/mL. This molecule also had a TGI in series [8] of around 30%.

B3: Anti-HER2 hu7C2 LC:K149C-LD-51: ADC of anti-HER2 hu7C2 LC:K149C antibody with LD-51; Table 9 lists it under its linker-drug; DAR 1.9 (conjugate)
heavy: B1 heavy
light: B1 light
Regarding B3, the “maximum tolerated dose (MTD)” value in [9] (2×q3w regimen) is recorded as 16 mg/kg. In series [9] (4×q3w regimen), the “maximum tolerated dose (MTD)” value is 8 mg/kg. Also, the major target organs result in [9] (cynomolgus monkey, in vivo) is “kidney, bone marrow, skin, lung, lymphoid organs (spleen, thymus, lymph nodes), small intestine, and eye (cornea)”. In addition, in [9] (setting [11]), the lung alveolar degeneration/fibroplasia entry is “mild”; the “lymphoid depletion (thymus, spleen, lymph nodes)” value is “mild-moderate”; the renal tubular degeneration entry is recorded as “mild-moderate”; the skin pigmentation/hyperkeratosis result is listed as “mild”. Moreover, in [9] (setting [11]), the “small intestine mucosa finding” value was “mild”. Besides, the “anti-tumor activity compared to the vehicle group” value in series [10] is given as “clear anti-tumor activity”.
